Measurements: ChEMBL document CHEMBL1153892 (Bioorg Med Chem, 2009)

Tested on: A2780
Experiment: Antiproliferative activity against human A2780 cells after 2 days by alamar-blue assay
Assay type: functional, cell-based
Conditions: A2780, 48 h

SMILES	IC50
O=C1c2cc3c(cc2C(=O)C2OC12)CCCC3 (stereo not drawn)	1400 nM
O=C1C2=C(C(=O)c3cc4c(cc31)CCCC4)S(=O)(=O)CCN2	6900 nM
O=C1C=CC(=O)c2cc3c(cc21)CCCC3	750 nM
